Experimental data from ChEMBL document CHEMBL1134160 (Bioorg Med Chem Lett, 2001).

The chains behind the UniProt entries cited, without tags or fusion partners.
UniProt P49582, whole entry, looked up: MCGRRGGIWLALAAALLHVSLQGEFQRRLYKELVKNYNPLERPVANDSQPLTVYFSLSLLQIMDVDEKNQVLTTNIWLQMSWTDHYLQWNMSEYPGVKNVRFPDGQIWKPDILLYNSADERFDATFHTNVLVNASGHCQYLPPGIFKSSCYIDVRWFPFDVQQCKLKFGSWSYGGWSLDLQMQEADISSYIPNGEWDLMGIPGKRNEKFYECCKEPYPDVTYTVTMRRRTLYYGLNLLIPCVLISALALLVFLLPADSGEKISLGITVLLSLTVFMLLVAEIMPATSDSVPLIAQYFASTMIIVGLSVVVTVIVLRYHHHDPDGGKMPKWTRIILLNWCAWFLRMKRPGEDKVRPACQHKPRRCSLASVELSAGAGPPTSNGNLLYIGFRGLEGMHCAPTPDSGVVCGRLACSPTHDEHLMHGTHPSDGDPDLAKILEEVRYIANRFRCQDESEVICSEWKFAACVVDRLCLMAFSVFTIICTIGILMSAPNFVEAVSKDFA

Biological target: Neuronal acetylcholine receptor subunit alpha-7 (Mus musculus) (UniProt P49582)
Experiment: Functional activity is expressed as percent efficacy for alpha-7 nAChR.

O=C(OC1CN2CCC1CC2)c1c[nH]c2ccccc12 (stereo unspecified)
Efficacy: 42%
